According to PubChem BioAssay (NCI):
Only a part is listed here, and it is no random draw.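 Compound tested at a single concentration for 48 hours in 96-well plates; a percent growth value below 10 was scored as active.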 The source made the active and inactive calls.

Columns and labels:
Assay in all cases: NCI-60 one-dose screen, 48 h (100 = growth as untreated, 0 = no growth, -100 = all killed)
Details in all cases: 10 µM
[1] = system: SK-MEL-2 melanoma
[2] = system: SN12C renal
[3] = system: UO-31 renal
[4] = system: TK-10 renal
[5] = system: ACHN renal
[6] = system: CAKI-1 renal
[7] = system: A498 renal
[8] = system: HL-60(TB) leukemia
[9] = system: CCRF-CEM leukemia
[10] = system: MOLT-4 leukemia
[11] = system: SR leukemia
[12] = system: RPMI-8226 leukemia
[13] = system: OVCAR-8 ovarian
[14] = system: OVCAR-5 ovarian
[15] = system: OVCAR-4 ovarian
[16] = system: SK-OV-3 ovarian
[17] = system: IGROV1 ovarian
[18] = system: OVCAR-3 ovarian
[19] = system: HS 578T breast
[20] = system: EKVX NSCLC

Measured: growth

Cc1ccc(S(=O)(=O)CN(CCBr)CCBr)cc1
inactive: [1] 106% | [2] 93.7% | [3] 91.9% | [4] 112% | [5] 98.3% | [6] 89.4% | [7] 112% | [8] 110% | [9] 110% | [10] 97.5% | [11] 123% | [12] 106% | [13] 91.8% | [14] 112% | [15] 102% | [16] 105% | [17] 103% | [18] 120% | [19] 107%

O=C1C(=O)N(CN(CCCl)CCCl)c2ccccc21
inactive: [1] 123% | [2] 95.9% | [3] 78.1% | [4] 116% | [5] 92.3% | [6] 94.3% | [7] 103% | [8] 97.9% | [10] 96.3% | [11] 87.4% | [12] 98.2% | [13] 98.7% | [14] 108% | [15] 106% | [16] 98.8% | [17] 99.4% | [18] 105%

CC(C)(C)C(=O)CBr
inactive: [2] 107% | [3] 87.8% | [4] 98.5% | [5] 104% | [6] 99.9% | [7] 106% | [8] 96.7% | [10] 97.6% | [11] 102% | [12] 102% | [13] 104% | [14] 107% | [15] 107% | [16] 114% | [17] 108% | [18] 101% | [19] 103%

ClCCN1[C@@H](CCl)CC[C@@H]1c1ccccc1
inactive: [20] 102% | [2] 97.4% | [3] 89.1% | [4] 116% | [5] 98% | [6] 64.4% | [7] 107% | [8] 59% | [9] 66.7% | [10] 75.6% | [11] 57.8% | [12] 94.2% | [13] 88.9% | [14] 111% | [15] 105% | [16] 96.1% | [17] 100% | [18] 102% | [19] 103%

C[N+](C)(CCCl)CCCl
inactive: [2] 100% | [3] 95.9% | [4] 115% | [5] 102% | [6] 111% | [7] 115% | [8] 96.8% | [10] 103% | [11] 98.8% | [12] 99.3% | [13] 93.7% | [14] 112% | [15] 103% | [16] 105% | [17] 126% | [18] 108% | [19] 97.5%

Cc1cccc(C(=O)N(CCCl)CCCl)c1
inactive: [1] 98.2% | [2] 100% | [3] 97% | [4] 118% | [5] 93.4% | [6] 86.2% | [7] 112% | [8] 96.7% | [10] 101% | [11] 98.2% | [12] 97.8% | [13] 107% | [14] 96.6% | [15] 101% | [16] 114% | [17] 102% | [18] 102%

O=C(O)CCCCc1ccc(N(CCCl)CCCl)cc1
inactive: [1] 118% | [2] 81.7% | [3] 77% | [4] 100% | [5] 65.7% | [6] 51.9% | [7] 103% | [8] 63.3% | [9] 46.7% | [10] 59.8% | [11] 26.4% | [12] 88.7% | [13] 77.2% | [14] 99.1% | [15] 95.5% | [16] 103% | [17] 81.6% | [18] 96% | [19] 96.9%

O=CC(O)C(O)C(O)C(O)CN(CCCl)CCCl (configuration not stated)
inactive: [2] 97.5% | [3] 84.2% | [4] 104% | [5] 94.5% | [6] 95% | [7] 92.4% | [8] 111% | [9] 92.1% | [10] 85.4% | [11] 100% | [12] 99.9% | [13] 101% | [14] 97.1% | [15] 96.5% | [16] 100% | [17] 101% | [18] 102% | [19] 106%

BrCCN(CCBr)CCCN(CCBr)CCBr
inactive: [1] 105% | [2] 93.6% | [3] 79.8% | [4] 111% | [5] 106% | [6] 96.7% | [7] 88.3% | [8] 108% | [9] 94% | [10] 92.4% | [11] 92.2% | [12] 93.5% | [13] 96.8% | [14] 106% | [15] 116% | [16] 101% | [17] 88.9% | [18] 113% | [19] 103%
